Measurements published in PMC5586342, “Mouse glutamate carboxypeptidase II (GCPII) has a similar enzyme activity and inhibition profile but a different tissue distribution to human GCPII” (FEBS Open Bio, 2017).

Chains of the proteins cited; added tags and fusions are not shown. Residues count along the entry.
UniProt Q04609, 44-750 limits assumed: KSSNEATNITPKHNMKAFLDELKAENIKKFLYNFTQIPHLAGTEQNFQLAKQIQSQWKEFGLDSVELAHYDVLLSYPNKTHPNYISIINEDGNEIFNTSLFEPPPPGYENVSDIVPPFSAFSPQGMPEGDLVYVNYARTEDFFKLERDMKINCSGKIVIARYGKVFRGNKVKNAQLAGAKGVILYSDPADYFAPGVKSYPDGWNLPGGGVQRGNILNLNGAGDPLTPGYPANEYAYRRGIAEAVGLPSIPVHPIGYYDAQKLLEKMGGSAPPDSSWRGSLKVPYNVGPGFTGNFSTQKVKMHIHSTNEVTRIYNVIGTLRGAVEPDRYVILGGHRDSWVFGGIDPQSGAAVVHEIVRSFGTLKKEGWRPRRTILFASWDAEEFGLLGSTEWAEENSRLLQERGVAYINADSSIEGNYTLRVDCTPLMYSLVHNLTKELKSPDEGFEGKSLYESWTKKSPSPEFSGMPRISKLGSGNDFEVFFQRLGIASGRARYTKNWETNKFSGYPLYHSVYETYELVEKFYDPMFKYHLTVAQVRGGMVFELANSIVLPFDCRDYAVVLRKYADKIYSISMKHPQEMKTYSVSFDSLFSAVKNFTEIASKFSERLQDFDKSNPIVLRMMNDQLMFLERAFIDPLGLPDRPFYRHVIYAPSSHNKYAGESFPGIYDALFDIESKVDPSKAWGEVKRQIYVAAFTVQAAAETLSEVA
UniProt O35409, 45-752 limits assumed: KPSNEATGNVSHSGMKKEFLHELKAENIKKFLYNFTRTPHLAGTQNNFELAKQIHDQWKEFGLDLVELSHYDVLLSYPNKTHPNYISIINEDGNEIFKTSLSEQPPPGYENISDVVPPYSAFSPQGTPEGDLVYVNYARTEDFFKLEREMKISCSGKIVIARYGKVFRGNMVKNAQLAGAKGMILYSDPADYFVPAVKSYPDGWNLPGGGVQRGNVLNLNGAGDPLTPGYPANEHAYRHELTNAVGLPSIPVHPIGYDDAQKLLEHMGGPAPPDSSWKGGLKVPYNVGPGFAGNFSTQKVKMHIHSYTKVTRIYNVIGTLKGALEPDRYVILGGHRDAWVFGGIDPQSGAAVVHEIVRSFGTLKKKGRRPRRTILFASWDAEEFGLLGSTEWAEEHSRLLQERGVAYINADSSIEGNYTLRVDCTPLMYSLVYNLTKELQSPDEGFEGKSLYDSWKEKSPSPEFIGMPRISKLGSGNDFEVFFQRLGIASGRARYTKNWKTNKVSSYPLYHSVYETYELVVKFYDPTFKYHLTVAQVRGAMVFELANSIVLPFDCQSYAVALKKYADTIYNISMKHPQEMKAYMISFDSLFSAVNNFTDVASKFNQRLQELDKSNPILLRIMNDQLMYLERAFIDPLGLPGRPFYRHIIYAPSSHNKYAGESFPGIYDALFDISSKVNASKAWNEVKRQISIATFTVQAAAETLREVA

Columns and labels:
[1] = target: Avi-hGCPII (recombinant extracellular human GCPII) (Homo sapiens, UniProt Q04609); assay: HPLC assay of pteroyl-di-L-glutamate cleavage; type: biochemical; settings: read-out: K i (Avi-hGCPII); substrate pteroyl-di-L-glutamate ([…] final), […] Bis-Tris propane, […] NaCl, pH […] °C
[2] = target: Avi-mGCPII (recombinant extracellular mouse GCPII) (Mus musculus, UniProt O35409); assay: HPLC assay of pteroyl-di-L-glutamate cleavage; type: biochemical; settings: read-out: K i (Avi-mGCPII); substrate pteroyl-di-L-glutamate ([…] final), […] Bis-Tris propane, […] NaCl, pH […] °C

Row | Ki [1] | Ki [2] | Structure (SMILES)
1 | 0.05 nM | 0.68 nM | CC(=O)N(CCCC[C@H](NC(=O)N[C@@H](CCC(=O)O)C(=O)O)C(=O)O)Cc1ccc(Br)cc1 (single isomer, unassigned)
2 | 0.17 nM | 0.66 nM | CC(=O)NCCCC[C@H](NC(=O)N[C@@H](CCC(=O)O)C(=O)O)C(=O)O (single isomer, unassigned)
